The term Ki denotes a measure of affinity in units of concentration, obtained from inhibition or displacement. A lower Ki goes with a stronger hold on the target.

Chains of the proteins cited; added tags and fusions are not shown.
UniProt P25099, whole entry: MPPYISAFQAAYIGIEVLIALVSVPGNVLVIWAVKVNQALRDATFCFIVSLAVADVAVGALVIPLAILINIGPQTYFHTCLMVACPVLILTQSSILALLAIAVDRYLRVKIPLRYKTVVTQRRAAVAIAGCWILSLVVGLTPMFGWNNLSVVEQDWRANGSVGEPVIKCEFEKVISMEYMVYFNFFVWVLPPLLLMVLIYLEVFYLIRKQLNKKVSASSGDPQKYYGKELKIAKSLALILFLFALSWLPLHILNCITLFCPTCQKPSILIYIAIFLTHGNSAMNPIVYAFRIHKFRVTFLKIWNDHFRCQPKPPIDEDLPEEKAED

The assay deals with Adenosine receptor A1 (Rattus norvegicus, UniProt P25099).

`Nc1nc(Nc2ccccc2)nc2c1ncn2[C@@H]1O[C@H](CO)[C@@H](O)[C@H]1O` returned a Ki of 590 nM.

Source of the values: ChEMBL document CHEMBL1124304 (J Med Chem, 1988).
